Results reported in patent US7612056B2, “Substituted diaza-spiro-[4.5]-decane derivatives and their use as neurokinin antagonists” (Jenssen Pharmaceutica N.V., priority 2005, dated 2009).

The chains behind the UniProt entries cited, without tags or fusion partners.
UniProt P29371, whole entry: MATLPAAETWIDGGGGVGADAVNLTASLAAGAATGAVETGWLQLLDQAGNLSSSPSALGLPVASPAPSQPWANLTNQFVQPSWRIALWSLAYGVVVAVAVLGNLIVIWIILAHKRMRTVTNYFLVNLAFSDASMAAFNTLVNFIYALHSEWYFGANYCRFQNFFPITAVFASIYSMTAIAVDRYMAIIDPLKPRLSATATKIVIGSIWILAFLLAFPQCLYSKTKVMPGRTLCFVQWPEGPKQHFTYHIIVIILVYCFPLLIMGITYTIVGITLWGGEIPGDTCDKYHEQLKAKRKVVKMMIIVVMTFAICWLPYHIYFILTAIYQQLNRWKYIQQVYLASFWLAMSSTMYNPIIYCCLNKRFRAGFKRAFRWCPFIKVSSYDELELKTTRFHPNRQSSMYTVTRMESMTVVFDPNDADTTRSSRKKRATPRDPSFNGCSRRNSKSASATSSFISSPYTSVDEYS
UniProt P25103, whole entry: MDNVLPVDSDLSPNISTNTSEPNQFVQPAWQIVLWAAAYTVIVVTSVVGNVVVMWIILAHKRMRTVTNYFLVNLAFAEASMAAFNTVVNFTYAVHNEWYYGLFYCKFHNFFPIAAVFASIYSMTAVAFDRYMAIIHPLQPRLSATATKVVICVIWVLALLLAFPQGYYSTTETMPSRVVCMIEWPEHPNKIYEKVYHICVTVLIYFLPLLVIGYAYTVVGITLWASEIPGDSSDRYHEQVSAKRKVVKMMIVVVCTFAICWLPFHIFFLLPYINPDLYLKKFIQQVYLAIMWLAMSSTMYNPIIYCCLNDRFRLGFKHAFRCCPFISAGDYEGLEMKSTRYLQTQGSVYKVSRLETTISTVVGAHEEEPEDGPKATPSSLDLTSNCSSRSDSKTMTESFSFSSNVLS
UniProt P21452, whole entry: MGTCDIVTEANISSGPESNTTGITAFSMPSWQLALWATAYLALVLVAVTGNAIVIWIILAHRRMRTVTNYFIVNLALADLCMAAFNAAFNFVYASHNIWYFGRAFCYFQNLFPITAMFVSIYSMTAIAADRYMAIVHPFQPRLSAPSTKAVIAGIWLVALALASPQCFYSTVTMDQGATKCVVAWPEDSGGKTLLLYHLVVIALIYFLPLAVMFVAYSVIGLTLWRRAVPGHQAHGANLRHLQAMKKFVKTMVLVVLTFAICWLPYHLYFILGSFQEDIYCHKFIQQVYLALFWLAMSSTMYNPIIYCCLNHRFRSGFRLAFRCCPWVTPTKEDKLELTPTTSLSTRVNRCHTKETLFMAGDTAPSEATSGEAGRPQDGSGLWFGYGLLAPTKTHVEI

Assays:
Conditions in all cases: antagonist, Ca++ transient peak
NK3 = NK3 (Homo sapiens, UniProt P29371); assay: Signal transduction (ST), intracellular Ca++ (FLIPR), NK3
NK1 = NK1 (Homo sapiens, UniProt P25103); assay: Signal transduction (ST), intracellular Ca++ (FLIPR), NK1
Experimental: This test evaluates in vitro functional NK1 antagonistic activity. For the measurements of intracellular Ca^++ concentrations the cells were grown on 96-well (black wall/transparent bottom) plates from Costar for 2 days until they reached confluence. The cells were loaded with 2 μM Fluo3 in DMEM containing 0.1% BSA and 2.5 mM probenecid for 1 h at 37° C. They were washed 3× with a Krebs buffer (140 mM NaCl, 1 mM MgCl2×6H2O, 5 mM KCl, 10 mM glucose, 5 mM HEPES; 1.25 mM CaCl2; pH 7.4) containing 2.5 mM probenecid and 0.1% BSA (Ca^++-buffer). The cells were preincubated with a concentration range of antagonists for 20 min at RT and Ca^++-signals after addition of the agonists were measured in a Fluorescence Image Plate Reader (FLIPR from Molecular Devices, Crawley, England). The peak of the Ca^++-transient was considered as the relevant signal and the mean values of corresponding wells were analysed as described below.
The sigmoidal dose response curves were analysed by computerised curve-fitting, using the GraphPad Program. The EC50-value of a compound is the effective dose showing 50% of maximal effect. For mean curves the response to the agonist with the highest potency was normalised to 100%. For antagonist responses the IC50-value was calculated using non-linear regression. […]

NK2 = NK2 (Homo sapiens, UniProt P21452); assay: Signal transduction (ST), intracellular Ca++ (FLIPR), NK2

Compound | pIC50 NK3 (NK3) | pIC50 NK1 (NK1) | pIC50 NK2 (NK2)
O=C(c1cc(C(F)(F)F)cc(C(F)(F)F)c1)N1CC[C@@H](N2CCC3(CC2)CCN(S(=O)(=O)c2cccs2)C3)C[C@H]1Cc1ccccc1 | <5 | 6.51 | <5
O=C(c1ccoc1)N1CCC2(CC1)CCN([C@H]1CCN(C(=O)c3cc(C(F)(F)F)cc(C(F)(F)F)c3)[C@H](Cc3ccccc3)C1)C2 | 5.68 | 7.15 | 5.65
